Data reported in patent US20240115550A1, “TREATMENT OF MENTAL DISORDERS” (GH Research Ireland Limited, priority 2022, published 2024).
“And” between values parts separate entries of the source, which are not always exact repeats. Equal entries are not always repeated.

Tests used:
[1] = tested on: human hepatocytes (Hμrel HumanPool co-culture); experiment: Metabolic stability in Hμrel human hepatocyte co-culture; format: in vitro ADME
Procedure: The metabolic stability of 5-MIAA and 5-methoxytryptophol was investigated in a Hμrel co-culture assay with human hepatocytes (Hμrel HumanPool™, primary hepatic co-culture model from Visikol Inc.).
The incubations were performed using 1 and 10 μM initial concentrations and sampling at 0, 1, 2, 4, 8, 24, 48, and 72 hours (h) time points. The samples were analysed using UPLC/QE-orbitrap-MS.
The remaining LC/MS peak areas detected for test compounds after each incubation time point with Hμrel co-culture assay, relative to corresponding 0 min incubation samples, are shown in the tables below.

[2] = tested on: human hepatocytes; experiment: Metabolite identification in human hepatocytes; format: in vitro ADME; details: 5-MeO-DMT free base 10 μM, up to 120 minutes
Procedure: All samples were stored at −80° C. (nominal) prior to analysis.
Appropriate blank and control samples were also analysed. […] (nominal).

[3] = LC-MS/MS of 5-MeO-DMT and metabolites in breastmilk, serum and urine of a lactating PPD patient; details: 5-MIAA after 5-MeO-DMT

5-methoxyindole acetic acid [5-MIAA]
predicted hepatic extraction ratio [1]: 2% | relative LC/MS peak area for 5-MIAA ([1]; 0 h, incubation by row: r6 1 μM Hepatocytes, r7 1 μM Stromal cells, r8 10 μM Hepatocytes, r9 10 μM Stromal cells): 100% | relative LC/MS peak area for 5-MIAA ([1]; 2 h, rows as E133): 100% | relative LC/MS peak area for 5-MIAA ([1]; 4 h, rows as E133, acetic acid): 99% and 103% and 101% | relative LC/MS peak area for 5-MIAA ([1]; 8 h, rows as E133, acetic acid): 95% and 107% and 96% and 106% | relative LC/MS peak area for 5-MIAA ([1]; 24 h, rows as E133, acetic acid): 99% and 108% and 96% and 97% | relative LC/MS peak area for 5-MIAA ([1]; 48 h, rows as E133, acetic acid): 88% and 111% and 86% and 103% | relative LC/MS peak area for 5-MIAA ([1]; 72 h, rows as E133, acetic acid): 82% and 135% and 75% and 115% | half-life ([1]; human hepatocytes, 1 μM): 15 400 min | Relative Proportion of compound after incubation of 5-MeO-DMT ([2]; listed as 5-Methoxyindole acetic acid (5-MIAA)): 61% | Relative Proportion of compound after incubation of 5-MeO-DMT ([2]; acetic acid): about 60% | fold lower breast milk concentration at 24 hours than at one hour [3]: ~400 fold
